This experiment deals with Adenosine receptor A1 (Rattus norvegicus, UniProt P25099). Nature of the experiment: Evaluated for binding affinity against Adenosine A1 receptor.

The chains behind the UniProt entries cited, without tags or fusion partners.
UniProt P25099, whole entry: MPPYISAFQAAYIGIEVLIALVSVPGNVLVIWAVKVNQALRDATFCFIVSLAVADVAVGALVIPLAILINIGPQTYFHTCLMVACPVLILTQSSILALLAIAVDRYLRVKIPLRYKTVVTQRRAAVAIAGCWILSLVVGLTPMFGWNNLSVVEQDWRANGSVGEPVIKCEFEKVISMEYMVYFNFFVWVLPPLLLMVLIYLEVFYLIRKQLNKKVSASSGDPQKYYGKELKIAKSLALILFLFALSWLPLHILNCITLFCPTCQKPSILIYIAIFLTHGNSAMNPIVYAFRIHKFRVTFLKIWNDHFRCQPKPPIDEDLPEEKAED

Compound `OC[C@H]1O[C@@H](n2cnc3c(NCc4ccccc4)ncnc32)[C@H](O)[C@@H]1O` [N6-BENZYLADENOSINE] gave an IC50 of 126 nM.
`COc1ccc(-c2nc3c([nH]2)c(=O)n(C)c(=O)n3C)cc1` gave a Ki of 0.631 nM.
Take `COc1cccc(-c2nc3c(=O)n(C)c(=O)n(C)c3[nH]2)c1`: the Ki is 8.71 nM.
`CCCn1c(=O)c2nc(C3CC3)[nH]c2n(CCC)c1=O` showed a Ki of 41.7 nM.
The compound `Cc1ccccc1-c1nc2c([nH]1)c(=O)n(C)c(=O)n2C` had a Ki of 3.63 nM.

(Values after ChEMBL document CHEMBL1126162, “A steric and electrostatic comparison of three models for the agonist/antagonist binding site on the adenosine A1 receptor” (J Med Chem, 1992).)
